The results in this text go back to BindingDB's records for doi:10.1016/j.bmcl.2008.08.095 (Sunesis Pharmaceuticals, 2008).

The chains behind the UniProt entries cited, without tags or fusion partners.
UniProt P53350, whole entry: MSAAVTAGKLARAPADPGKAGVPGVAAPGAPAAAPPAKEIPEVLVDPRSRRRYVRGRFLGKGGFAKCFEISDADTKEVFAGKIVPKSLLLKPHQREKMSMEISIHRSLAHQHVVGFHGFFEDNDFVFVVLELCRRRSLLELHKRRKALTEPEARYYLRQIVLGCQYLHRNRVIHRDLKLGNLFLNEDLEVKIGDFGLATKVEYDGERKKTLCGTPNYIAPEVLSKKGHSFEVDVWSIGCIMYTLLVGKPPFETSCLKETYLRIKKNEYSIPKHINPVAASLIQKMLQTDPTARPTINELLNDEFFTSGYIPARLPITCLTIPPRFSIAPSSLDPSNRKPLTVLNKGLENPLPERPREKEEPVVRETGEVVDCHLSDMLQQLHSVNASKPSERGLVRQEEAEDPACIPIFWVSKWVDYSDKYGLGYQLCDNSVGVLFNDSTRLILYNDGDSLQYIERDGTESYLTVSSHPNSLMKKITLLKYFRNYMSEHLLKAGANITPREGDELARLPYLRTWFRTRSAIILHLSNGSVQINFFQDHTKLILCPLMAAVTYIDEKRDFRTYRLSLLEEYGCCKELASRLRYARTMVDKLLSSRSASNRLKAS

By IC50 is commonly meant the concentration that inhibits the measured activity by half. A higher IC50 goes with weaker potency in that assay.

The assay addresses Serine/threonine-protein kinase PLK1 (Homo sapiens, UniProt P53350).

`Cc1nn(-c2cc(Cl)cc(-c3ccccc3C(N)=O)c2)c2cc(N[C@@H](C)c3ccccc3)ncc12` [2-[3-chloro-5-(3-methyl-6-{[(1S)-1-phenylethyl]amino}-1H-pyrazolo[4,3-c]pyridin-1-yl)phenyl]benzamide] gave a concentration for half-maximal inhibition (IC50) of 0.042 µM.
